Test results taken from patent US9290476B2, “Methylene linked quinolinyl modulators of RORγt” (Janssen Pharmaceutica NV, priority 2012, dated 2016).
Where “and” joins values, the source holds several entries; their conditions need not be identical. Identical values can stand only once.

By UniProt entry, the sequences of proteins in these tests, tags left out. Chains listed by the source or under a name are the forms on record and can include a tag or linker. Residues count along the entry.
UniProt P51449, 258-518: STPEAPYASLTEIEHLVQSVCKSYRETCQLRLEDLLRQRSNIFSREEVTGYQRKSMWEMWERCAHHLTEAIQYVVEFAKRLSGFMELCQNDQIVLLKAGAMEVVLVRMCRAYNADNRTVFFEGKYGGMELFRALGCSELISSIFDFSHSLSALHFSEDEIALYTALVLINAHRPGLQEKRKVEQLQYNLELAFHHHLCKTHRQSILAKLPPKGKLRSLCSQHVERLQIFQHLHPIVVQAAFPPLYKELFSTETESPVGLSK
UniProt P51449, other isoform, or with tags, fused parts or gaps: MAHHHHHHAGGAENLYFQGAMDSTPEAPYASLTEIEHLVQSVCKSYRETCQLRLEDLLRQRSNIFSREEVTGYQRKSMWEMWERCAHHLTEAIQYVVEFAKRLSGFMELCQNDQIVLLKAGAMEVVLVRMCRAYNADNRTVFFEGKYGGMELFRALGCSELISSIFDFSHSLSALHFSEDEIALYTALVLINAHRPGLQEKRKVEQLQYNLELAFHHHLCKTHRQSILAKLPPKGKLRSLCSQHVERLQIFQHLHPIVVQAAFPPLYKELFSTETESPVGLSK

How the values were obtained:
human RORγt LBD = human RORγt LBD (Homo sapiens (Human), UniProt P51449); assay: RORγt reporter assay (GAL4-RORγt LBD luciferase in HEK293T cells); format: cell-based; settings: 24 hours compound treatment
Source text: A reporter assay was used to test functional activity of RORγt modulatory compounds on transcriptional activation driven by the RORγt LBD. Cells used in the assay were co-transfected with two constructs. The first construct, pBIND-RORγt LBD, contained the wild type human RORγt LBD fused to the DNA binding domain of the GAL4 protein. The second construct, pGL4.31 (Promega Cat no. C935A), contained multiple GAL4 responsive DNA elements upstream of firefly luciferase. […] The mutant construct was called pBIND-RORγt-AF2.
The pBIND vector contains the GAL4 DNA Binding Domain (GAL4 DBD) and the renilla luciferase gene under control of the SV40 promoter. Renilla luciferase expression serves as a control for transfection efficiency and cell viability.
The reporter assay was performed by transiently transfecting HEK293T cells with 5 ng of pBIND-RORγt LBD or pBIND-RORγt LBD-AF2 and 5 μg pGL4.31 (Promega Cat no. C935A) using Fugene 6 ([…] Cat no. E2691) at a 1:6 ratio of DNA: Fugene 6 in a T-75 flask in which cells were at least 80% confluent. Twenty four hours after bulk transfection, cells were plated into 96-well plates at 50,000 cells/well in phenol-red free DMEM containing 5% Lipid Reduced FCS and Pen/Strep. Six hours after plating, cells were treated with compounds for 24 hours. Media was removed and cells were lysed with 50 μL 1× Glo Lysis Buffer (Promega). Dual Glo Luciferase Reagent (50 μL/well) was then added and firefly luciferase luminescence was read on an Envision after a ten minute incubation. Finally, Stop and Glo reagent (50 μL/well) was added and renilla luciferase luminescence was read on an Envision after a ten minute incubation. To calculate the effect of compounds on RORγt activity, the ratio of firefly to renilla luciferase was determined and plotted against compound concentration. Agonist compounds increase RORγt-driven luciferase expression, and antagonist or inverse agonist compounds decrease luciferase expression.

[1] = target: human RORγt ligand binding domain (RORγt LBD) (Homo sapiens (Human), UniProt P51449); assay: RORγt ThermoFluor assay (thermal shift binding affinity); settings: estimated from thermal shift

Structure (SMILES) | IC50 (human RORγt LBD) | Kd [1]
Cn1cncc1C(O)(c1ccc(C(F)(F)F)nc1)c1ccc2nc(C#N)c(Cc3ccc(-n4cccn4)cc3)c(C#N)c2c1 (single isomer, unassigned) [Example 72C, 3-(4-(1H-Pyrazol-1-yl)benzyl)-6-(hydroxy(1-methyl-1H-imidazol-5-yl)(6-(trifluoromethyl)pyridin-3-yl)methyl)quinoline-2,4-dicarbonitrile] | 0.047 µM | 
COc1nc2ccc(C(O)(c3ccc(C)nc3C)c3cnnn3C)cc2c(C#N)c1Cc1ccc(C(F)(F)F)cc1 (single isomer, unassigned) [Example 78B, 6-((2,6-Dimethylpyridin-3-yl)(hydroxy)(1-methyl-1H-1,2,3-triazol-5-yl)methyl)-2-methoxy-3-(4-(trifluoromethyl)benzyl)quinoline-4-carbonitrile] | 0.15 µM | 120 nM
COc1nc2ccc(C(O)(c3ccc(C)nc3C)c3cnnn3C)cc2c(C#N)c1Cc1ccc(C(F)(F)F)cc1 (single isomer, unassigned) [Example 78C, 6-((2,6-Dimethylpyridin-3-yl)(hydroxy)(1-methyl-1H-1,2,3-triazol-5-yl)methyl)-2-methoxy-3-(4-(trifluoromethyl)benzyl)quinoline-4-carbonitrile] | 0.0017 µM | 
COc1nc2ccc(C(O)(c3cnnn3C)c3cnc(C)n3C)cc2c(Cl)c1Cc1ccc(C(F)(F)F)cc1 (single isomer, unassigned) [Example 80B, (4-chloro-2-methoxy-3-(4-(trifluoromethyl)benzyl)quinolin-6-yl)(1,2-dimethyl-1H-imidazol-5-yl)(1-methyl-1H-1,2,3-triazol-5-yl)methanol] | 0.003 µM and ~0.004 µM | 
COc1nc2ccc(C(O)(c3cnnn3C)c3cnc(C)n3C)cc2c(Cl)c1Cc1ccc(C(F)(F)F)cc1 (single isomer, unassigned) [Example 80C, (4-chloro-2-methoxy-3-(4-(trifluoromethyl)benzyl)quinolin-6-yl)(1,2-dimethyl-1H-imidazol-5-yl)(1-methyl-1H-1,2,3-triazol-5-yl)methanol] |  | 0.026 nM
CCc1nc2ccc(C(O)(c3cnnn3C)C3CN(S(C)(=O)=O)C3)cc2c(Cl)c1Cc1ccc(C(F)(F)F)cc1 (single isomer, unassigned) [Example 91B, (4-Chloro-2-ethyl-3-(4-(trifluoromethyl)benzyl)quinolin-6-yl)(1-methyl-1H-1,2,3-triazol-5-yl)(1-(methylsulfonyl)azetidin-3-yl)methanol] | 0.029 µM | 
CCc1nc2ccc(C(O)(c3cnnn3C)C3CN(S(C)(=O)=O)C3)cc2c(Cl)c1Cc1ccc(C(F)(F)F)cc1 (single isomer, unassigned) [Example 91C, (4-Chloro-2-ethyl-3-(4-(trifluoromethyl)benzyl)quinolin-6-yl)(1-methyl-1H-1,2,3-triazol-5-yl)(1-(methylsulfonyl)azetidin-3-yl)methanol] | ~0.006 µM | 0.23 nM
Cn1cncc1C(O)(c1ccc(C(F)(F)F)nc1)c1ccc2nc(C#N)c(Cc3ccc(-n4cccn4)cc3)c(C#N)c2c1 (stereo not drawn) [Example 72B, 3-(4-(1H-Pyrazol-1-yl)benzyl)-6-(hydroxy(1-methyl-1H-imidazol-5-yl)(6-(trifluoromethyl)pyridin-3-yl)methyl)quinoline-2,4-dicarbonitrile] | 0.031 µM | 0.71 nM
COc1nc2ccc(C(O)(c3ccc(C)nc3C)c3cnnn3C)cc2c(C#N)c1Cc1ccc(C(F)(F)F)cc1 (stereo not drawn) [Example 78A, 6-((2,6-Dimethylpyridin-3-yl)(hydroxy)(1-methyl-1H-1,2,3-triazol-5-yl)methyl)-2-methoxy-3-(4-(trifluoromethyl)benzyl)quinoline-4-carbonitrile] | 0.011 µM | 
COc1nc2ccc(C(O)(c3cnnn3C)c3cnc(C)n3C)cc2c(Cl)c1Cc1ccc(C(F)(F)F)cc1 (stereo not drawn) [Example 80A, (4-Chloro-2-methoxy-3-(4-(trifluoromethyl)benzyl)quinolin-6-yl)(1,2-dimethyl-1H-imidazol-5-yl)(1-methyl-1H-1,2,3-triazol-5-yl)methanol] | 0.011 µM | 
CCc1nc2ccc(C(O)(c3cnnn3C)C3CN(S(C)(=O)=O)C3)cc2c(Cl)c1Cc1ccc(C(F)(F)F)cc1 (stereo not drawn) [Example 91A, (4-Chloro-2-ethyl-3-(4-(trifluoromethyl)benzyl)quinolin-6-yl)(1-methyl-1H-1,2,3-triazol-5-yl)(1-(methylsulfonyl)azetidin-3-yl)methanol] | 0.0022 µM | 0.25 nM
